Legend:
[1] = Hydroscopicity comparison (moisture absorption, 25° C. and 80% humidity, 24 hours); format: physicochemical
Experimental: (§1) Voriconazole phosphate anhydrate and Voriconazole phosphate hydrate were prepared using different methods, and placed under conditions of 25° C. and 80% humidity for 24 hours, and then the weight increase due to moisture absorption was determined.

[2] = format: physicochemical
Experimental: as §1
Sample injection was carried out by using a sample prepared by allowing the sample in Example 17 to absorb moisture, and the results are shown in Table 5.

In the case of Voriconazole phosphate anhydrate, the “Weight increase by moisture absorption, by weight” value [1] is reported as 17.5%, the “Individual impurity, by weight” value ([2]; 24 hour moisture absorption) is reported as “Individual impurity 0.30%” and the “Total impurity, by weight” value ([2]; 24 hour moisture absorption) is reported as “Total impurity 0.37%”. For the same substance, the “change in impurity after absorbing moisture (in words)” value ([2]; 24 hours) was “more than one time of increase in impurities”.

From patent US9650400B2, “Voriconazole sodium phosphate hydrates and polymorphs thereof” (SHAANXI SYNTHETIC PHARMACEUTICAL CO., LTD., priority 2013, dated 2017)
